Measured values taken from US20140271930A1, “NONINVASIVE METHOD FOR MEASURING METABOLITES FOR SKIN HEALTH” (priority 2013, published 2014).
Marks after values point to notes of the source that are not given here.

Test system: scalp of dandruff and non-dandruff subjects
Assay: Metabolite expression profiling (LC/MS/MS, GC/MS/MS) of scalp D-Squame tape strip extracts: non-dandruff, dandruff baseline, dandruff after 3 weeks anti-dandruff shampoo
Format: in vivo, human

CCCCCCCCCCCCCCC(C)C(=O)O (stereo not drawn) [2-methylpalmitate]
Mean Values WEEK 3 TRT Sel (dandruff subjects after 3 weeks treatment with Sel shampoo, metabolite level in scalp tape strip extract): 0.1469 | Mean Values WEEK 3 TRT ZPT (dandruff subjects after 3 weeks treatment with ZPT shampoo, metabolite level in scalp tape strip extract): 0.2049 | Fold Change Wk 3 Sel vs Dandruff Baseline (metabolite level in scalp tape strips, standardized to soluble protein, dandruff subjects after 3 weeks 1% selenium sulfide shampoo vs own baseline): 0.1* fold | Fold Change Wk 3 ZPT vs Dandruff Baseline (metabolite level in scalp tape strips, standardized to soluble protein, dandruff subjects after 3 weeks 1% zinc pyrithione shampoo vs own baseline): 0.17* fold | Fold Change Wk 3 ZPT vs Non-Dan Baseline (metabolite level in scalp tape strips, dandruff subjects after 3 weeks 1% ZPT shampoo vs non-dandruff subjects): 0.2* fold | Fold Change Wk 3 Sel vs Non-Dan Baseline (metabolite level in scalp tape strips, dandruff subjects after 3 weeks 1% selenium sulfide shampoo vs non-dandruff subjects): 0.14* fold
